# Apparent affinities of Ab-14 variants for a coronavirus HR2 peptide

Values reported by Engelhart et al. 2022, doi:10.1038/s41597-022-01779-4 (FLAb copy).

All variants were tested on one target, the spike HR2 peptide PDVDLGDISGINAS (SARS-CoV-2).

Parent: Ab-14, a human scFv built as VH, a 15-residue (Gly4Ser)3 linker, VL. Only the CDRs of the heavy chain vary.
VH: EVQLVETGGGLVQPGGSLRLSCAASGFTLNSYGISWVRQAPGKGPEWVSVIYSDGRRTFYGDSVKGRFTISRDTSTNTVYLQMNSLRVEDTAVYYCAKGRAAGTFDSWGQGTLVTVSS
VL: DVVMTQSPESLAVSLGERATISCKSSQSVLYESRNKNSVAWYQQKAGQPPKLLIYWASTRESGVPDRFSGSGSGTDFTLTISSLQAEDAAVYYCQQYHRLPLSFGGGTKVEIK

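The library (AAYL49) carries one to three amino acid substitutions per variant, with no insertions or deletions. Affinity was read by AlphaSeq, a pooled yeast mating assay with surface-displayed partners. Binding brings cells together so that they mate, and sequencing counts the barcode pairs among the diploids. Each replicate has its own calibration line, from reference interactions of the BCL2 family. There are three technical replicates.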

Substitutions are numbered in sequence along the VH above, starting at 1 (not Kabat).
Every variant below is changed at S53 of the VH (sequential numbering).
Values are log10 of the apparent Kd in nM; lower means stronger binding.
Replicates are averaged; those with no signal do not enter the mean.
An entry "not detected" has no value in the source: the pair was not observed among the diploids in any replicate. This suggests poor binding but is not conclusive.
As a blank, each scFv also met three strains without target: over library AAYL49, 15% of these pairings were detected, typically at 4.06 and seldom below 2.83.

changes	log10 Kd (nM), mean	detected
S53F+D54V+F59W	not detected	0 of 3
S53M+A102P+T104Y	not detected	0 of 3
S53N+R56E+T104G	not detected	0 of 3
Y52D+S53Q+V64F	5.12	1 of 3
S31D+G33H+S53Y	not detected	0 of 3
S53N+T104V+F105W	not detected	0 of 3
S53D+V64H	not detected	0 of 3
I34P+S53L	not detected	0 of 3
I51P+S53M+F59W	not detected	0 of 3
V50T+S53K+G103M	not detected	0 of 3
S53E+G55I+R57K	5.20	2 of 3
V50G+S53Y+G55L	not detected	0 of 3
S53N+R56D+S63Q	not detected	0 of 3
S53Q+R57T+G61L	3.90	3 of 3
S31G+S53Q+R56C	3.10	1 of 3
G26E+I51R+S53L	not detected	0 of 3
L29A+S53G+R100P	not detected	0 of 3
Y52R+S53F+G99S	2.71	1 of 3
G26V+S53M	not detected	0 of 3
S53R+T104V+S107W	not detected	0 of 3
S35N+S53F+S107T	5.01	1 of 3
S53E+G61C+R100N	not detected	0 of 3
S53Q+S63K	not detected	0 of 3
S53D+G99Q	not detected	0 of 3
S31T+V50L+S53Q	4.49	1 of 3
S53E+D62H	not detected	0 of 3
N30V+S53Q+R56T	not detected	0 of 3
I34L+S53P	3.08	1 of 3
Y32K+S53Q+R57F	not detected	0 of 3
S53R+G55L+A101V	not detected	0 of 3
S53C+R56D+D106L	not detected	0 of 3
S53D+R57G+A102E	not detected	0 of 3
S53F+R56S+S63W	not detected	0 of 3
S31Q+S53F+K65V	1.35	2 of 3
S53K+A102L+S107L	4.48	2 of 3
S53L+G61H+F105P	not detected	0 of 3
S31R+S53I+D54K	not detected	0 of 3
S53D+F59Y+G61V	4.49	3 of 3
S35G+S53H+Y60W	5.59	1 of 3
T28N+N30Q+S53D	4.63	2 of 3
L29R+S53P	not detected	0 of 3
S53A+T58Y+Y60G	3.55	2 of 3
S53Q+T58K+A102G	not detected	0 of 3
S53L+G55L+S63R	not detected	0 of 3
S53P+D54R+D62G	not detected	0 of 3
F27I+S53A+S107M	0.06	3 of 3
S53I+G99K+R100F	not detected	0 of 3
S53G+D62P	2.70	3 of 3
S53V+S63V+G99H	4.70	2 of 3
T28M+S53Q+G61E	4.08	3 of 3
S53D+R100G+S107L	2.99	1 of 3
S53D+G55H+F105T	4.52	2 of 3
F27C+G33R+S53F	not detected	0 of 3
I34Y+S35R+S53M	not detected	0 of 3
G26E+S53Y+A101W	1.47	3 of 3
S53N	3.67	1 of 3

The last 6 entries again:

changes,"log10 Kd (nM), mean",detected
S53D+R100G+S107L,2.99,1 of 3
S53D+G55H+F105T,4.52,2 of 3
F27C+G33R+S53F,not detected,0 of 3
I34Y+S35R+S53M,not detected,0 of 3
G26E+S53Y+A101W,1.47,3 of 3
S53N,3.67,1 of 3